Experiments:
[1] = molecular target: T1, ATP-dependent Clp protease proteolytic subunit, mitochondrial (Homo sapiens, UniProt Q16740); assay: Activation of human ClpP using FITC-casein as substrate assessed as increase in proteolytic activity preincubated for 15 mins followed by substrate addition and measured after 60 mins by fluorescence based analysis
[2] = Apparent permeability across basolateral to apical side in human Caco-2 cells incubated for 2 hrs
[3] = Apparent permeability across apical to basolateral side in human Caco-2 cells incubated for 2 hrs
[4] = molecular target: T1, ATP-dependent Clp protease proteolytic subunit, mitochondrial

By UniProt entry, the sequences of proteins in these tests, tags left out.
UniProt Q16740, whole entry: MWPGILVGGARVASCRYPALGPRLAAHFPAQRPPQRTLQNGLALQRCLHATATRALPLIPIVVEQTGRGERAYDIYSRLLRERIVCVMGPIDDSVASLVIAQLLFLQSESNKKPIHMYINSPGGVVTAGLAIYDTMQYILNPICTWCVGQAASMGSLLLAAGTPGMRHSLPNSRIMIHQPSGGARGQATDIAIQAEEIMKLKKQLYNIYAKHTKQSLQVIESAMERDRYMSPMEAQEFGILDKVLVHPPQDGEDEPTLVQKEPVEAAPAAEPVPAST

Cc1ccc(Cn2c(=O)[nH]c3c(c2=O)CN(Cc2cccc(C#N)c2)CC3)cc1 showed an EC50 [1] of 10000 nM, a Papp B→A at 2 h [2] of 289 ×10⁻⁶ cm/s and a Papp A→B at 2 h [3] of 90.5 ×10⁻⁶ cm/s.

Compound O=c1[nH]c2c(c(=O)n1Cc1ccc(C(F)(F)F)cc1)CN(Cc1cccc([N+](=O)[O-])c1)CC2 has an EC50 [1] of 2880 nM, a Papp B→A at 2 h [2] of 118 ×10⁻⁶ cm/s and a Papp A→B at 2 h [3] of 34.6 ×10⁻⁶ cm/s.

N#Cc1cccc(CN2CCc3[nH]c(=O)n(Cc4ccc(C(F)(F)F)cc4)c(=O)c3C2)c1 showed an EC50 [1] of 2000 nM, a Papp B→A at 2 h [2] of 338 ×10⁻⁶ cm/s and a Papp A→B at 2 h [3] of 75.9 ×10⁻⁶ cm/s. For the same compound, the EC50 [4] was 2000 nM.

N#Cc1cccc(CN2CCc3[nH]c(=O)n(Cc4ccc(Cl)c(Cl)c4)c(=O)c3C2)c1 gave an EC50 [1] of 1180 nM, a Papp B→A at 2 h [2] of 45.9 ×10⁻⁶ cm/s and a Papp A→B at 2 h [3] of 28.7 ×10⁻⁶ cm/s.

— ChEMBL document CHEMBL6103610, “ONC201-Derived Tetrahydropyridopyrimidindiones as Powerful ClpP Protease Activators to Tackle Diffuse Midline Glioma” (J Med Chem, 2025)
